Like-named read-outs stand apart in the source and are kept apart here.
Assays:
U118 cells = assay: Viability of U118 cells after DHA-H, DHA, HPA (150 μM, 48 h); format: cell-based, human; conditions: for Anti-proliferative effect (cell viability): 150 μM, 48 h
Experimental: (§1) FIG. 4. A. DHA-H is a prodrug that is metabolically transformed into HPA by α-oxidation in U118 cells. The intracellular levels of DHA (black bars), DHA-H (white bars) and HPA (striped bars) are represented on the ordinate axis (nmoles/mg of protein), with respect to the treatment conditions: Control (C) and sodium salt of DHA-H 150 μM (48 h), in the presence or absence of simultaneous treatment with oxythiamine 1 and 10 mM, in the abscissa axis. […] The bars represent the mean±standard error, and the statistical analysis was performed using one-way ANOVA and the Tukey multiple evaluation test: *p<0.05 when comparing only HPA levels. B. Metabolic conversion of DHA-H to HPA is necessary for an anti-tumor effect to exist. The cell viability (% of the control -C- without oxythiamine) is represented in the ordinate axis, with respect to the treatment conditions: Control (C- black bars) and the sodium salt of DHA-H 150 μM, 48 h (white bars) in the presence and absence of simultaneous treatment with 1 mM oxythiamine, in the abscissa axis. […] The bars represent the mean±standard error, and the statistical analysis was performed using one-way ANOVA and the Tukey multiple evaluation test: *p<0.05 when compared to control (C); #p<0.05 when comparing the effect of DHA-H in the presence and absence of oxythiamine.
(§2) FIG. 5. A. Viability of U118 cells in culture after treatment with DHA-H sodium salt, DHA sodium salt, and HPA. The cell viability (% of the control without treatment) is represented in the ordinate axis, versus the different treatment conditions in the abscissa axis: Control (black bar), DHA-H sodium salt (150 μM, 48 h—white bar), DHA (150 μM, 48 h—striped bar) and HPA (150 μM, 48 h—grid bar). Treatment with HPA under the same conditions induces a much more evident degree of mortality on the culture than that induced by DHA-H (prodrug) or DHA (natural analogue). This effect could be due to a mixture of anti-proliferative effect and toxic effects typical of HPA, which would not be attributable to DHA-H or DHA under the same experimental conditions. The bars represent the mean±standard error, and the statistical analysis was performed using one-way ANOVA and the Tukey multiple evaluation test: *p<0.05 when compared to control. B. Intracellular levels of HPA in U118 cells in culture, treated with the sodium salt of DHA-H and HPA. […]
(§3) Cell survival was analyzed in a Barker chamber using trypan blue vital exclusion staining (Scharlab) or by cell proliferation kit II (Roche). […] After different times, plaque viable cells were determined by the addition of XTT according to the manufacturers instructions.

[1] = system: U-118 MG xenographic tumors; assay: U-118 MG xenographic tumors in NUDE mice treated with DHA-H or HPA; format: in vivo; conditions: for Volume of the xenographic tumor 42 days after the start of treatment: 200 mg/kg/day oral; for Levels in xenographic tumors after DHA-H sodium salt: DHA-H sodium salt 200 mg/kg oral, 42 days
Experimental: FIG. 3. […] The levels of DHA (black bars) and HPA (white bars) (pmoles/mg of tissue) in the tumor are represented in the ordinate axis, versus the treatment condition (vehicle and DHA-H 200 mg/kg) in the abscissa axis. NUDE (immunosuppressed) mice at 3 months of age were injected subcutaneously with 7.5.10^6 U118 cells (grade IV human multiform glioblastoma). Tumor growth was allowed at the subcutaneous level for 10 days prior to initiation of oral treatments (vehicle or DHA-H sodium salt 200 mg/kg), which were maintained 42 days until sacrifice. […] B. Tumor HPA levels correlate inversely with tumor size in xenographic models. The size of the tumor (cm^3) is represented, in the ordinate axis, versus the levels of HPA (pmoles/mg of tissue) in the tumor, in the abscissa axis, for two treatment conditions: ∘ vehicle and sodium • salt of DHA-H 200 mg/kg. The presence of HPA in the tumor of animals under treatment with DHA-H sodium salt has astatistically significant linear relationship with tumor volume (A2), where: r^2=0.4296 and p=0.0029.
FIG. 7. A: Tumor growth is inhibited in vivo in the presence of treatment with HPA sodium salt or its prodrug, DHA-H, in xenographic models. The size of the tumor (cm^3) is represented in the ordinate axis, versus the days of treatment elapsed in the abscissa axis. […] After 10 days, the tumors became visible with an approximate volume of 0.1 cm^3. Animals were randomly divided into groups with a similar mean tumor volume and received daily oral treatments for 42 days: o vehicle (untreated control), DHA-H ▴ (200 mg/kg/day) and ▪ HPA (200 mg/kg/day). Tumor volumes (v) were calculated as v=A^2×L/2, where A is the width of the tumor and L is its length. The data obtained for each treatment condition were adjusted to an exponential growth curve. […] The volume of the tumors induced 42 days after the start of the treatments is represented in the ordinate axis, versus the treatment conditions in the abscissa axis. The individualised data of the animals participating in the study are represented: o carrier (untreated control), DHA-H ▴ (200 mg/kg/day) and ▪ HPA (200 mg/kg/day). The bars represent the mean±standard error for each treatment condition and the statistical analysis was performed by unidirectional ANOVA and the Tukey multiple evaluation test: *p<0.05 when compared to the control condition.
The 5xFAD model of Alzheimer's disease is a dual transgenic PS1/APP mouse that harbors five human mutations associated with familial AD (Tg6799 line): Swedish (K670N/M671L), Florida 151(1716V) and London (V717I) in APP; and clinical mutations M146L and L286V in human PS1. […]

U-118 MG cells = assay: Intracellular fatty acid levels in U-118 MG cells treated with DHA-H or HPA; format: in vitro ADME
Experimental: as §1, §2, §3

U118 MG = assay: IC50 in tumor cell cultures (cell survival, XTT / trypan blue); format: cell-based; conditions: U-118-MG; U118 MG human glioblastoma cell line
Experimental: Cell survival was analyzed in a Barker chamber using trypan blue vital exclusion staining (Scharlab) or by cell proliferation kit II (Roche). Briefly, the cells were seeded in 96-well plates at a density of 3 x 10^3 cells per well 24 h prior to treatment, and then cultured in the presence or absence of compounds of interest at the concentrations and for the times indicated in the figures. After different times, plaque viable cells were determined by the addition of XTT according to the manufacturers instructions. Cells were incubated at 37° C. in 5% CO2 until a constant color was developed and absorbance was recorded at 495 nm using a microplate reader with a reference wavelength of 650 nm (FLUOstar Omega, BMG LABTECH, Germany).
The anti-tumor activity of the different metabolites described in FIGS. 8 and 9 was determined by direct treatment with these molecules (HDA or C17:2 ω-6, HTA ω-3 or C17:3 ω-3, HTA ω-6 or C17:3 ω-6, NTA or C19:4 ω-6, NPA or C19:5 ω-3, and HPA or C21:5 ω-3) in tumor cell cultures, on which the IC50 value for each of these compounds was determined (Inhibitory Concentration 50: concentration of study compound that induces death of 50% of the tumor cell population).

U-118 MG glioma cells [2] = assay: Cell viability by violet crystal staining, 72 hours; format: cell-based, human; conditions: 72 hours
Experimental: (§4) FIG. 14. Effect of 2OHOA sodium salt, OA and C17:1n-9 sodium salt on cell viability and proliferation of glioma cells. […] Viability was determined by violet crystal staining.
(§5) In order to evaluate the antiproliferative effect of C17:1n-9, its IC50, which corresponds to the amount of a compound needed to reduce cell viability in vitro by 50%, as well as its effect on the regulation of proteins involved in the mechanism of action of 2OHOA, were determined. […] Upon completion of treatment, IC50 was determined by violet crystal staining technique. […] The IC50 of 2OHOA was 1000 μM for non-tumor cells, MRC-5 and astrocytes.

U-251 MG glioma cells = assay: as above; format: cell-based, human; conditions: 72 hours
Experimental: as §4, §5

U-118 MG glioma cells [3] = assay: Cell survival by trypan blue vital exclusion staining, 2OHOA and oxythiamine; format: cell-based, human
U-251 MG = assay: as above; format: cell-based, human; conditions: 2 mM oxythiamine, 72 hours
Experimental: FIG. 18. Effect of metabolite C17:1n-9 on the action of 2OHOA. […] Cell viability was determined by vital exclusion staining with trypan blue.
To study whether the metabolite C17:1n-9 can participate in the action of 2OHOA, the effect of pre-incubation with oxythiamine on cell survival and 2OHOA-regulated proteins was studied. To do this, the cell survival of different glioma and non-tumor cell lines treated with 2OHOA (400 μM, 72 hours) and pre-incubated or not with 2 mM […] (90 minutes) was analyzed by counting the cells with the vital exclusion stain with trypan blue. In addition, Western-blot 2OHOA-modulated proteins were studied. In glioma cells, a significant decrease in cell survival was observed after incubation with 2 mM oxythiamine for 72 hours.

U-118 MG glioma cells [4] = conditions: U-118 MG, 400 μM 2OHOA 24 hours

CCC=CCC=CCC=CCC=CCC=CCC=CCC(O)C(=O)O (stereo not shown) [DHA-H, 2-hydroxy-drocosahexaenoic acid]
Anti-proliferative effect (cell viability) (U118 cells; U118-MG): significant anti-proliferative effect
Anti-proliferative effect in the presence of oxythiamine (U118 cells; U118-MG, DHA-H 150 μM 48 h with 1 mM oxythiamine): partially reversed
Volume of the xenographic tumor 42 days after the start of treatment [1]: reduce the volume of the xenographic tumor significantly
Levels in xenographic tumors after DHA-H sodium salt [1]: undetectable levels
HPA treatment concentration generating equivalent intracellular HPA levels (U-118 MG cells; U118, 150 μM DHA-H sodium salt, 48 h): 5 µM
Endogenous levels of DHA after treatment (U-118 MG cells; U-118 MG, DHA-H): no effect
HPA levels after addition of DHA-H (U-118 MG cells; U-118 MG, DHA-H 150 μM, 48 h): significant increase in HPA levels

CCCCC/C=C\C/C=C\CCCCCCC(=O)O [HDA, (8Z,11Z)-heptadeca-8,11-dienoic acid]
IC50 (U118 MG): 144 ± 32 µM

CC/C=C\C/C=C\C/C=C\C/C=C\C/C=C\CCCCC(=O)O [HPA, (6Z,9Z,12Z,15Z,18Z)-heneicosa-6,9,12,15,18-pentaenoic acid]
IC50 (U118 MG): 124 ± 16 µM
Anti-proliferative effect (cell viability) (U118 cells; U118-MG): much higher
Volume of the xenographic tumor 42 days after the start of treatment [1]: reduce the volume of the xenographic tumor significantly
Levels in xenographic tumors after DHA-H sodium salt [1]: tumor accumulation

CC/C=C\C/C=C\C/C=C\CCCCCCC(=O)O [HTA n-3, (8Z,11Z,14Z)-heptadeca-8,11,14-trienoic acid]
IC50 (U118 MG): 129 ± 3 µM

CCCCC/C=C\C/C=C\C/C=C\CCCC(=O)O [HTA n-6, (5Z,8Z,11Z)-heptadeca-5,8,11-trienoic acid]
IC50 (U118 MG): 235 ± 26 µM

CC/C=C\C/C=C\C/C=C\C/C=C\C/C=C\CCC(=O)O [NPA, (4Z,7Z,10Z,13Z,16Z)-nonadeca-4,7,10,13,16-pentaenoic acid]
IC50 (U118 MG): 90 ± 9 µM

CCCCC/C=C\C/C=C\C/C=C\C/C=C\CCC(=O)O [NTA, (4Z,7Z,10Z,13Z)-nonadeca-4,7,10,13-tetraenoic acid]
IC50 (U118 MG): 113 ± 13 µM

CCCCCCCC/C=C\CCCCCCCC(=O)[O-].[Na+] [OA, reference compound]
IC50 (U-118 MG glioma cells [2]): 226 ± 7.3 µM
IC50 (U-251 MG glioma cells): 237 ± 6.52 µM

Cc1ncc(C[n+]2csc(CCO)c2C)c(=O)[nH]1 [oxythiamine, reference compound]
Cell death (U-118 MG glioma cells [3]; oxythiamine 1 mM alone): 12.16±0.5%
Cell death (U-118 MG glioma cells [3]; oxythiamine 2 mM alone): 21.17±1.76%
Maximum cell survival inhibition (U-118 MG glioma cells [3]; oxythiamine 10 mM alone): 27.13±0.41%
Effect on cell viability (U118 cells; U-118 MG, 1 mM oxythiamine alone): no effect on cell viability
Effect on the DHA-H induced increase in HPA levels (U-118 MG cells; U-118 MG, simultaneous 1 or 10 mM oxythiamine): inhibited
Cell death (U-251 MG): 18.51±0.58%
Reduction in C17:1n-9 formed from 2OHOA (U-118 MG glioma cells [4]; 1 mM oxythiamine pre-incubation): 51.35%
Increase in the amount of 2OHOA (U-118 MG glioma cells [4]; 4mM oxythiamine): 12.33%
Increase in the amount of 2OHOA (U-118 MG glioma cells [4]; 10 mM oxythiamine): 52.94%
Reduction in C17:1n-9 formed from 2OHOA (U-118 MG glioma cells [4]; 10 mM oxythiamine): 58.45%
